Experimental data taken from ChEMBL document CHEMBL1124742 (J Med Chem, 1990).

How the values were obtained:
P388 [1] = assay: Optimal dose of drug administered as a single dose in 0.1 or 0.2 mL of 30% v/v ethanol/water on day one after ip inoculation of 10e6 P388 leukemia cells
P388 [2] = assay: In vitro cytotoxicity against P388 murine leukemia; format: functional, cell-based, Mus musculus
UV4 = assay: In vitro cytotoxicity against transformed chinese hamster fibroblast line UV4.; format: functional, cell-based, Cricetulus griseus
CHO-AA8 = assay: In vitro cytotoxicity against transformed chinese hamster fibroblast line AA8; format: functional, cell-based, Cricetulus griseus

Which results are given for `CC(=O)Nc1ccc(N(CCCl)CCCl)cc1`?
OD (P388 [1]): 65 mg/kg; IC50 (P388 [2]): 8200 nM; IC50 (UV4): 100 nM; IC50 (CHO-AA8): 3100 nM

What does the source list for `Cc1ccc(N(CCCl)CCCl)cc1`?
IC50 (P388 [2]): 410 nM; IC50 (UV4): 170 nM; IC50 (CHO-AA8): 3200 nM

Which results are given for `CN(C)C(=O)c1ccc(N(CCCl)CCCl)cc1`?
OD (P388 [1]): 65 mg/kg; IC50 (P388 [2]): 19200 nM; IC50 (UV4): 1200 nM; IC50 (CHO-AA8): 28000 nM

What does the source list for `COc1ccc(N(CCCl)CCCl)cc1`?
IC50 (P388 [2]): 630 nM; IC50 (UV4): 340 nM; IC50 (CHO-AA8): 2900 nM

`CSc1ccc(N(CCCl)CCCl)cc1` was tested. Which IC50 (P388 [2]) did it give?
Its IC50 is 1470 nM.

And the IC50 (UV4)?
Its IC50 is 160 nM.

What about the IC50 (CHO-AA8) of the same compound?
Its IC50 is 5300 nM.

How did the OD (P388 [1]) turn out when `CS(=O)(=O)c1ccc(N(CCCl)CCCl)cc1` was run?
Its OD is 100 mg/kg.

What about the IC50 (UV4) of the same compound?
Its IC50 is 42000 nM.

What does the source list for `CC(=O)c1ccc(N(CCCl)CCCl)cc1`?
OD (P388 [1]): 45 mg/kg; IC50 (P388 [2]): > 40000 nM; IC50 (UV4): 5500 nM; IC50 (CHO-AA8): > 40000 nM
